Assay [1] deals with MHCC97H. The assay is described as follows: Induction of E-cadherin protein expression in human MHCC97H cells at 5 to 10 uM measured after 48 hrs incubation by Western blot analysis. Type of assay: functional, cell-based. The note with it: dose 5-10 µM.
Assay [2] has as its system HCCLM3. The assay is described as follows: Induction of cell cycle related protein expression in human HCCLM3 cells assessed as increase in retinoblastoma-associated protein (Rb) expression at 5 to 10 uM measured after 48 hrs by Western blot analysis. Type of assay: functional, cell-based. The note with it: dose 5-10 µM. On the technique in general: In western blotting, separated proteins are transferred to a membrane and probed.

Assay [3] has as its system MHCC97H. The assay is described as follows: Induction of apoptosis in human MHCC97H cells assessed as increase in active cleaved-poly [ADP-ribose] polymerase (c-PARP) at 5 to 10 uM measured after 48 hrs by Western blot analysis. The note with it: dose 5-10 µM. Type of assay: functional, cell-based.
The test system of assay [4] is MHCC97H. The assay is described as follows: Reduction of cell cycle promoting protein expression in human MHCC97H cells assessed as increase in cyclin E1 expression measured after 48 hrs by Western blot analysis. The note with it: dose 5-10 µM. Type of assay: functional, cell-based.
Assay [5] concerns HCCLM3. The assay is described as follows: Inhibition of colony formation in human HCCLM3 cells measured after 14 days by crystal violet staining based microscopy. Type of assay: functional, cell-based. The note with it: dose 0.625-10 µM, time 14.0 day.
For assay [6], the system named is HCCLM3. The assay is described as follows: Induction of apoptosis in human HCCLM3 cells assessed as increase in active cleaved-poly [ADP-ribose] polymerase (c-PARP) at 5 to 10 uM measured after 48 hrs by Western blot analysis. The note with it: dose 5-10 µM. Type of assay: functional, cell-based.
The test system of assay [7] is HCCLM3. The assay is described as follows: Reduction of cell cycle promoting protein expression in human HCCLM3 cells assessed as increase in cyclin E1 expression measured after 48 hrs by Western blot analysis. Type of assay: functional, cell-based. The note with it: dose 5-10 µM.
For assay [8], the system named is MHCC97H. The assay is described as follows: Inhibition of colony formation in human MHCC97H cells measured after 14 days by crystal violet staining based microscopy. Type of assay: functional, cell-based. The note with it: dose 0.625-10 µM, time 14.0 day.
Assay [9] concerns HCCLM3. The assay is described as follows: Induction of N-cadherin protein expression in human HCCLM3 cells at 5 to 10 uM measured after 48 hrs incubation by Western blot analysis. Type of assay: functional, cell-based. The note with it: dose 5-10 µM.
Assay [10] concerns MHCC97H. The assay is described as follows: Induction of apoptosis in human MHCC97H cells assessed as increase in c-caspase-3 at 5 to 10 uM measured after 48 hrs by Western blot analysis. Type of assay: functional, cell-based. The note with it: dose 5-10 µM.
Assay [11] deals with MHCC97H. The assay is described as follows: Induction of ZEB1 protein expression in human MHCC97H cells at 5 to 10 uM measured after 48 hrs incubation by Western blot analysis. Type of assay: functional, cell-based. The note with it: dose 5-10 µM.
Assay [12] has as its system MHCC97H. The assay is described as follows: Induction of vimentin protein expression in human MHCC97H cells at 5 to 10 uM measured after 48 hrs incubation by Western blot analysis. The note with it: dose 5-10 µM. Type of assay: functional, cell-based.
Assay [13] relates to HCCLM3. The assay is described as follows: Induction of MMP9 protein expression in human HCCLM3 cells at 5 to 10 uM measured after 48 hrs incubation by Western blot analysis. The note with it: dose 5-10 µM. Type of assay: functional, cell-based.
Assay [14] relates to MHCC97H. The assay is described as follows: Induction of cell cycle related protein expression in human MHCC97H cells assessed as increase in p21 expression at 5 to 10 uM measured after 48 hrs by Western blot analysis. Type of assay: functional, cell-based. The note with it: dose 5-10 µM.
Assay [15] relates to MHCC97H. The assay is described as follows: In vivo-antitumor activity against human MHCC97H cells xenografted BALB/c mouse model assessed as reduction in Ki-67 protein at 10 mg/kg, IG once daily measured after 31 days relative to control. Type of assay: functional, organism-based. The note with it: time 31.0 day.
In assay [16] the test system is HCCLM3. The assay is described as follows: Reduction of cell cycle promoting protein expression in human HCCLM3 cells assessed as increase in CDK6 expression measured after 48 hrs by Western blot analysis. Type of assay: functional, cell-based. The note with it: dose 5-10 µM.
Assay [17] concerns HCCLM3. The assay is described as follows: In vivo-antitumor activity against human HCCLM3 cells xenografted BALB/c mouse model assessed as reduction in Ki-67 protein at 10 mg/kg, IG once daily measured after 31 days relative to control. The note with it: time 31.0 day. Type of assay: functional, organism-based.
Assay [18] has as its system HCCLM3. The assay is described as follows: Induction of cell cycle related protein expression in human HCCLM3 cells assessed as increase in p53 expression at 5 to 10 uM measured after 48 hrs by Western blot analysis. Type of assay: functional, cell-based. The note with it: dose 5-10 µM.
In assay [19] the test system is MHCC97H. The assay is described as follows: Induction of cell cycle related protein expression in human MHCC97H cells assessed as increase in p53 expression at 5 to 10 uM measured after 48 hrs by Western blot analysis. Type of assay: functional, cell-based. The note with it: dose 5-10 µM.
In assay [20] the test system is HCCLM3. The assay is described as follows: Inhibition of chondroitin sulfate in human HCCLM3 cells assessed as fluorescence at 5 to 10 uM measured after 48 hrs incubation by immunofluorescence staining analysis. Type of assay: functional, cell-based. The note with it: dose 5-10 µM.
Assay [21] has as its system HCCLM3. The assay is described as follows: Reduction of cell cycle promoting protein expression in human HCCLM3 cells assessed as increase in phosphorylated-Rb expression measured after 48 hrs by Western blot analysis. Type of assay: functional, cell-based. The note with it: dose 5-10 µM.
The test system of assay [22] is HCCLM3. The assay is described as follows: Induction of cell cycle related protein expression in human HCCLM3 cells assessed as increase in p21 expression at 5 to 10 uM measured after 48 hrs by Western blot analysis. Type of assay: functional, cell-based. The note with it: dose 5-10 µM.
The test system of assay [23] is HCCLM3. The assay is described as follows: Induction of MMP2 protein expression in human HCCLM3 cells at 5 to 10 uM measured after 48 hrs incubation by Western blot analysis. The note with it: dose 5-10 µM. Type of assay: functional, cell-based.
For assay [24], the system named is MHCC97H. The assay is described as follows: Reduction in cell-division in human MHCC97H cells by measuring carboxyfluorescein succinimidyl ester (CFSE) at 5 to 10 uM measured after 24 hrs by flow cytometry. Type of assay: functional, cell-based. The note with it: dose 5-10 µM. A general note: Flow cytometry measures light scatter and fluorescence of single cells or particles in a stream.

The test system of assay [25] is HCCLM3. The assay is described as follows: Induction of ZEB1 protein expression in human HCCLM3 cells at 5 to 10 uM measured after 48 hrs incubation by Western blot analysis. Type of assay: functional, cell-based. The note with it: dose 5-10 µM.
Assay [26] relates to HCCLM3. The assay is described as follows: Reduction in cell-division in human HCCLM3 cells by measuring carboxyfluorescein succinimidyl ester (CFSE) at 5 to 10 uM measured after 24 hrs by flow cytometry. Type of assay: functional, cell-based. The note with it: dose 5-10 µM.
In assay [27] the test system is HCCLM3. The assay is described as follows: Induction of vimentin protein expression in human HCCLM3 cells at 5 to 10 uM measured after 48 hrs incubation by Western blot analysis. Type of assay: functional, cell-based. The note with it: dose 5-10 µM.
Assay [28] concerns MHCC97H. The assay is described as follows: Induction of MMP9 protein expression in human MHCC97H cells at 5 to 10 uM measured after 48 hrs incubation by Western blot analysis. Type of assay: functional, cell-based. The note with it: dose 5-10 µM.
The test system of assay [29] is MHCC97H. The assay is described as follows: Induction of MMP2 protein expression in human MHCC97H cells at 5 to 10 uM measured after 48 hrs incubation by Western blot analysis. Type of assay: functional, cell-based. The note with it: dose 5-10 µM.
Assay [30] deals with MHCC97H. The assay is described as follows: Reduction of cell cycle promoting protein expression in human MHCC97H cells assessed as increase in phosphorylated-Rb expression measured after 48 hrs by Western blot analysis. Type of assay: functional, cell-based. The note with it: dose 5-10 µM.
In assay [31] the test system is MHCC97H. The assay is described as follows: Induction of cell cycle related protein expression in human MHCC97H cells assessed as increase in retinoblastoma-associated protein (Rb) expression at 5 to 10 uM measured after 48 hrs by Western blot analysis. Type of assay: functional, cell-based. The note with it: dose 5-10 µM.
Assay [32] deals with HCCLM3. The assay is described as follows: Induction of E-cadherin protein expression in human HCCLM3 cells at 5 to 10 uM measured after 48 hrs incubation by Western blot analysis. Type of assay: functional, cell-based. The note with it: dose 5-10 µM.
The subject of assay [33] is MHCC97H. The assay is described as follows: Reduction of cell cycle promoting protein expression in human MHCC97H cells assessed as increase in CDK6 expression measured after 48 hrs by Western blot analysis. Type of assay: functional, cell-based. The note with it: dose 5-10 µM.
Assay [34] has as its system MHCC97H. The assay is described as follows: Induction of N-cadherin protein expression in human MHCC97H cells at 5 to 10 uM measured after 48 hrs incubation by Western blot analysis. The note with it: dose 5-10 µM. Type of assay: functional, cell-based.
Assay [35] concerns MHCC97H. The assay is described as follows: Inhibition of chondroitin sulfate in human MHCC97H cells assessed as fluorescence at 5 to 10 uM measured after 48 hrs incubation by immunofluorescence staining analysis. Type of assay: functional, cell-based. The note with it: dose 5-10 µM.
For assay [36], the system named is HCCLM3. The assay is described as follows: Induction of apoptosis in human HCCLM3 cells assessed as increase in c-caspase-3 at 5 to 10 uM measured after 48 hrs by Western blot analysis. Type of assay: functional, cell-based. The note with it: dose 5-10 µM.
Assay [37] deals with HCCLM3. The assay is described as follows: Inhibition of cell migration in human HCCLM3 cells assessed as suppression of wound healing at 10 uM measured after 24 hrs by Transwell Cell Migration Assay (reference value: 15.71%). Type of assay: functional.
For assay [38], the system named is MHCC97H. The assay is described as follows: Inhibition of cell migration in human MHCC97H cells assessed as suppression of wound healing at 10 uM measured after 24 hrs by Transwell Cell Migration Assay (reference value: 22.22%). Type of assay: functional.
Assay [39] relates to HCCLM3. The assay is described as follows: Inhibition of colony formation in human HCCLM3 cells at 10 uM measured after 14 days by crystal violet staining based microscopy. Type of assay: functional, cell-based. The note with it: time 14.0 day.
Assay [40] deals with MHCC97H. The assay is described as follows: Inhibition of colony formation in human MHCC97H cells at 10 uM measured after 14 days by crystal violet staining based microscopy. Type of assay: functional, cell-based. The note with it: time 14.0 day.

Activity calls are given as the source filed them. The calls are words filed in the database; no cut-off is given here.

`COC(=O)c1ccc2[nH]cc(C(=O)C(=O)NC3CCN(c4ccc(C)cc4Cl)C3=O)c2c1` (centres undefined): the outcome in [1], in assay [2], in [3], in [6], in assay [9] and in assay [10] was Active. For the same compound, the outcome in assay [11], in assay [12], in [13], in [14], in assay [15] and in [17] was Active. Besides, the outcome in assay [18], in assay [19], in [22], in [23], in assay [24] and in assay [25] was Active. The outcome in assay [26], in assay [27], in [28], in assay [29], in assay [31] and in assay [32] was Active. For the same compound, the result in assay [34] and in assay [36] was Active. In addition, the Activity result in assay [4], in assay [7], in [16], in [21], in [30] and in assay [33] was “Dose-Dependent Effect” each time. Also, the inhibition result in [5] and in assay [8] was “Dose-Dependent Effect” in each case. The inhibition result in assay [20] and in assay [35] was “Active” throughout.
`COc1cc2nccc(Oc3ccc(NC(=O)NC4CC4)c(Cl)c3)c2cc1C(N)=O` [LENVATINIB]: the result in assay [3], in assay [6], in [10] and in [36] was inactive. Besides, the inhibition result in [37], in assay [38], in assay [39] and in assay [40] was “inactive” throughout.

The record behind these values is ChEMBL document CHEMBL5500417, “Discovery of Novel 2-Oxoacetamide Derivatives as B3GAT3 Inhibitors for the Treatment of Hepatocellular Carcinoma” (J Med Chem, 2024).
